# According to PubChem BioAssay AID624204 (Sanford-Burnham Center for Chemical Genomics, 2012):
# By UniProt entry, the sequences of proteins in these tests, tags left out. Residues count along the entry.
# UniProt Q9P0U3, 419-644 limits assumed: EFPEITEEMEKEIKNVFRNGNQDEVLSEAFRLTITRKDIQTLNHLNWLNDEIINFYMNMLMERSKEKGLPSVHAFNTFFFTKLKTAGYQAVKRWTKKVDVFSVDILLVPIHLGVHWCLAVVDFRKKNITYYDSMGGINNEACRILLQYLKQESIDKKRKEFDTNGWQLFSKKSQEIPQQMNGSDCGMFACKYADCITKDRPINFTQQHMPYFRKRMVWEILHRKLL
# This is a selection; strong and weak results do not stand in their true shares. Some structures show a salt or complex split into parts, the way the source records it. Activity calls are given as the source filed them.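 Rule for the calls: active = inhibition at least 30% at 10 µM, raw YFP signal under a set limit, fluorescence ratio 0.5 to 1.5; inactive = the rest.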
# Molecular target: Sentrin-specific protease 1 (Homo sapiens) (UniProt Q9P0U3)
# Assay: blockers of SENP1 SUMO protease activity – biochemical, FRET, uHTS, primary screen (AID 624204);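 note: 0% = enzyme with DMSO and 100% = no enzyme wells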
# Settings: recombinant SENP1 catalytic domain, CyPet-SUMO1-YPet FRET cleavage; at 10 µM; hits give high values
row,SMILES,inhibition
1,CP(=O)(NC(=O)Nc1ccccc1)Oc1ccccc1 (configuration not stated),inactive: 0.809%
2,CCc1ccc(OP(C)(=O)N2CCN(c3ccc([N+](=O)[O-])cc3)CC2)cc1 (configuration not stated),inactive: -14.6%
3,Cc1cc(C)cc(OP(C)(=O)Nc2ccc(SC(F)(F)F)cc2)c1 (configuration not stated),inactive: 0.493%
4,Cc1cccc(C)c1OP(C)(=O)Nc1ccc(SC(F)(F)F)cc1 (configuration not stated),inactive: 2.8%
5,Cc1ccc(Nc2c([N+](=O)[O-])cc([N+](=O)[O-])cc2[N+](=O)[O-])cc1,inactive: 7.18%
6,CP(=O)(Nc1ccc(SC(F)(F)F)cc1)Oc1ccc(Cl)cc1 (configuration not stated),inactive: 0.815%
7,CP(=O)(Oc1ccccc1)OC(c1ccccc1)C(F)(F)F (configuration not stated),inactive: 1.58%
8,CP(=O)(Nc1ccccn1)Oc1ccc(Cl)cc1 (configuration not stated),inactive: -0.307%
9,CCOC(=O)c1ccc(NP(C)(=O)Oc2ccc(OC)cc2)cc1 (configuration not stated),inactive: 6.17%
10,O=[N+]([O-])c1cc([N+](=O)[O-])c(O)c([N+](=O)[O-])c1.c1ccc(Oc2ccncc2)cc1,inactive: 2.83%
11,CCOP(C)(=S)SCC(=O)NC(C)C(=O)O (configuration not stated),inactive: 0.228%
12,CP(=O)(Nc1ccccc1Br)Oc1ccccc1 (configuration not stated),inactive: 2.04%
13,COc1ccccc1OP(C)(=O)Nc1ccccc1 (configuration not stated),inactive: 0.00601%
14,CP(=S)(Nn1cnnc1)Oc1ccccc1 (configuration not stated),inactive: 2.33%
15,O=[N+]([O-])c1ccc2c(c1)C=Nc1ccccc1O2,inactive: 5.44%
16,CC(C)(C)c1ccc(OP(C)(=O)Nc2ccc(SC(F)(F)F)cc2)cc1 (configuration not stated),inactive: 1.99%
17,Cc1cccc(C)c1OP(C)(N)=O (configuration not stated),inactive: -0.17%
18,O=[N+]([O-])c1cc([N+](=O)[O-])c(Nc2cccnc2)c([N+](=O)[O-])c1,inactive: 3.23%
19,Cc1cc(C)cc(OP(C)(N)=O)c1 (configuration not stated),inactive: 0.188%
20,COc1ccccc1OP(C)(=O)Nc1cc(Cl)ccc1C (configuration not stated),inactive: 0.63%
21,COc1ccc(OP(C)(=O)Nc2cccc(F)c2)cc1 (configuration not stated),inactive: 1.28%
22,COc1ccccc1OP(C)(=O)Nc1ccc(C)cc1 (configuration not stated),inactive: 1.03%
23,Cc1ccc(NP(C)(=O)Oc2ccccc2)c(C)c1 (configuration not stated),inactive: 1.66%
24,CCOC(=O)c1ccc(NP(C)(=O)Oc2ccccc2)cc1 (configuration not stated),inactive: -0.669%
25,CCN(CC)CCCOC(=O)C(O)(c1ccccc1)c1ccccc1,inactive: -0.35%

row,SMILES,inhibition
1,COc1ccccc1-c1ccccn1.O=[N+]([O-])c1cc([N+](=O)[O-])c(O)c([N+](=O)[O-])c1,inactive: 1.84%
2,CCOC(=O)c1ccc(NP(C)(=O)Oc2cc(C)cc(C)c2)cc1 (configuration not stated),inactive: 1.16%
3,Cc1cc(C)cc(OP(C)(=O)Nc2ccc(C)cc2C)c1 (configuration not stated),inactive: 1.69%
4,COc1ccccc1OP(C)(=O)Nc1cccc(Br)c1 (configuration not stated),inactive: 2%
5,Cc1ccc(C)c(NP(C)(=O)Oc2ccccc2)c1 (configuration not stated),inactive: 0.0224%
6,Cc1cc(C)cc(OP(C)(=O)Nc2ccccn2)c1 (configuration not stated),inactive: 0.753%
7,CP(=O)(Nc1cccc(Br)c1)Oc1ccccc1 (configuration not stated),inactive: 1.22%
8,O=C(O)c1cccc(Nc2c([N+](=O)[O-])cc([N+](=O)[O-])cc2[N+](=O)[O-])c1,inactive: 7.57%
9,CC1=NCCc2c1[nH]c1ccccc21.O=[N+]([O-])c1cc([N+](=O)[O-])c(O)c([N+](=O)[O-])c1,inactive: -3.32%
10,CC1=C2N=C(C=C3N=C(C(C)=C4[N-][C@@](C)([C@@H]5N=C1[C@](C)(CCC(=O)NC[C@@H](C)OP(=O)([O-])O[C@H]1[C@@H](O)[C@@H](n6cnc7cc(C)c(C)cc76)O[C@@H]1CO)[C@H]5CC(N)=O)[C@@](C)(CC(N)=O)[C@@H]4CCC(N)=O)[C@@](C)(CC(N)=O)[C@@H]3CCC(N)=O)C(C)(C)[C@@H]2CCC(N)=O.[C-]#N.[Co+3],inactive: 20.5%
11,O=[N+]([O-])c1cc([N+](=O)[O-])c(Nc2nnnn2CCO)c([N+](=O)[O-])c1,inactive: 1.7%
12,CCOC(=O)C(CC)C1=NC(C)(C)Cc2ccccc21.O=[N+]([O-])c1cc([N+](=O)[O-])c(O)c([N+](=O)[O-])c1 (configuration not stated),inactive: 0.494%
13,COc1ccc(-c2ccccn2)cc1.O=[N+]([O-])c1cc([N+](=O)[O-])c(O)c([N+](=O)[O-])c1,inactive: 0.4%
14,CCCOc1ccc(NP(C)(=O)Oc2ccc(Cl)cc2)cc1 (configuration not stated),inactive: -1.13%
15,CP(=O)(Nc1ccc(SC(F)(F)F)cc1)Oc1ccccc1 (configuration not stated),inactive: 1.43%
16,CN1CCCCC1COC(=O)C1(O)c2ccccc2CCc2ccccc21 (configuration not stated),inactive: 1.19%
17,CN(Cc1cccnc1)C(=O)COc1ccc(Cl)c(Cl)c1.O=[N+]([O-])c1cc([N+](=O)[O-])c(O)c([N+](=O)[O-])c1,inactive: 0.972%
18,O=[N+]([O-])c1cc([N+](=O)[O-])c(-n2nnc3ccccc32)c([N+](=O)[O-])c1,inactive: -3.15%
19,Cc1nc2ccc3ccccc3c2s1.O=[N+]([O-])c1cc([N+](=O)[O-])c(O)c([N+](=O)[O-])c1,inactive: -0.975%
20,O=[N+]([O-])c1cc([N+](=O)[O-])c(-c2cnn(-c3ccccc3)c2)c([N+](=O)[O-])c1,inactive: 2.34%
21,CCOP(C)(=S)SCC(=O)NC(C)(CC)C(=O)O (configuration not stated),inactive: 2.73%
22,CP(=O)(Nc1ccc(SC(F)(F)F)cc1)Oc1ccc(F)cc1 (configuration not stated),inactive: 0.625%
23,Cc1ccccc1NP(C)(=O)Nc1ccccc1C,inactive: 2.79%
24,O=[N+]([O-])c1cc([N+](=O)[O-])c(C(F)(F)F)c([N+](=O)[O-])c1O,inactive: 2.23%
25,CP(=O)(Nc1ccc2c(c1)OCCO2)Oc1ccccc1 (configuration not stated),inactive: 1.66%

row,SMILES,inhibition
1,CN(C)CCOC(=O)C(O)(c1ccccc1)C1CCCCC1 (configuration not stated),inactive: 1.74%
2,COc1ccc(NP(C)(=O)Oc2ccccc2OC)cc1 (configuration not stated),inactive: 0.884%
3,COc1ccc(OP(C)(=O)Nc2cccc(Br)c2)cc1 (configuration not stated),inactive: 0.437%
4,Cc1c(C(c2ccc3c(c2)OCO3)c2c(C)n(C)n(-c3ccccc3)c2=O)c(=O)n(-c2ccccc2)n1C.O=[N+]([O-])c1cc([N+](=O)[O-])c(O)c([N+](=O)[O-])c1,inactive: 3.69%
5,O=[N+]([O-])c1ccc(OP2(=O)COCCO2)cc1 (configuration not stated),inactive: 1.1%
6,O=[N+]([O-])c1cc([N+](=O)[O-])c(NCC2CCS(=O)(=O)C2)c([N+](=O)[O-])c1 (configuration not stated),inactive: 3.34%
7,Cc1cc(-c2cccc3ccccc23)c(C)cn1.O=[N+]([O-])c1cc([N+](=O)[O-])c(O)c([N+](=O)[O-])c1,inactive: 0.981%
8,CCOC(=O)c1ccc(NP(C)(=O)Oc2ccc(F)cc2)cc1 (configuration not stated),inactive: 1.4%
9,COc1ccc(OP(C)(=O)Nc2ccc(SC(F)(F)F)cc2)cc1 (configuration not stated),inactive: 1.11%
10,CCN(CC)CCCNc1ccccc1[N+](=O)[O-].O=[N+]([O-])c1cc([N+](=O)[O-])c(O)c([N+](=O)[O-])c1,inactive: 0.413%
11,CP(=O)(Nc1ccccc1)Oc1ccc(F)cc1 (configuration not stated),inactive: 1.68%
12,CCCCCOc1ccc(NP(C)(=O)Oc2ccc(Cl)cc2Cl)cc1 (configuration not stated),inactive: 0.536%
13,O=[N+]([O-])c1cc([N+](=O)[O-])c(OC2CCCCC2O)c([N+](=O)[O-])c1 (configuration not stated),inactive: -2.31%
14,Cc1c([N+](=O)[O-])cc([N+](=O)[O-])c(Br)c1[N+](=O)[O-],inactive: 2.98%
15,CCN(CC)CCCOC(=O)C(O)(c1ccccc1)C1CCCCC1 (configuration not stated),inactive: 0.175%
16,CP(=O)(Nc1ccccc1F)Oc1ccccc1 (configuration not stated),inactive: 0.911%
17,CC(C)c1ccc(OP(C)(=O)Nc2ccc(SC(F)(F)F)cc2)cc1 (configuration not stated),inactive: 0.581%
18,O=[N+]([O-])c1cc([N+](=O)[O-])c(Nc2ccc(Cl)cc2)c([N+](=O)[O-])c1,inactive: 4.2%
19,COc1ccc2c(c1O)-c1c(O)c(OC)cc3c1[C@H](C2)[N+](C)(C)CC3.O=[N+]([O-])c1cc([N+](=O)[O-])c([O-])c([N+](=O)[O-])c1[O-],inactive: 3.05%
20,O=C(OC1CN2CCC1CC2)c1ccc([N+](=O)[O-])cc1 (configuration not stated),inactive: -1.89%
21,O=C(OCCN1CCN(CCOCc2ccccc2)CC1)C(O)(c1ccccc1)c1ccccc1,inactive: 0.686%
22,COc1ccc(OP(C)(=O)Nc2ccccn2)cc1 (configuration not stated),inactive: 1.86%
23,CN(C)CCOC(=O)C(O)(c1ccccc1)C1CCCC1 (configuration not stated),inactive: 0.773%
24,COc1ccccc1OP(C)(=O)Nc1ccc(Br)cc1 (configuration not stated),inactive: 1.19%
25,CP(=O)(Nc1ccccn1)Oc1ccccc1 (configuration not stated),inactive: 1.96%

row,SMILES,inhibition
1,COc1ccccc1OP(C)(=O)Nc1ccc(C)cc1C (configuration not stated),inactive: -0.198%
2,CCc1ccc(OP(C)(=O)O)cc1,inactive: -0.214%
3,Cc1c(NP(C)(=O)Oc2ccc(C(C)C)cc2)c(=O)n(-c2ccccc2)n1C (configuration not stated),inactive: 0.875%
4,O=[N+]([O-])c1cc([N+](=O)[O-])c(Nc2ccccn2)c([N+](=O)[O-])c1,inactive: 1.51%
5,COc1ccccc1OP(C)(=O)Nc1ccc(C)c(C)c1 (configuration not stated),inactive: -1.04%
6,COc1ccc(OP(C)(=O)Nc2ccccc2Br)cc1 (configuration not stated),inactive: 0.669%
7,O=C1C(O)=C([N+](=O)[O-])C(=O)C(O)=C1[N+](=O)[O-],inactive: 10.3%
8,Cc1cc(C)cc(OP(C)(=O)Nc2cccc(C(F)(F)F)c2)c1 (configuration not stated),inactive: 2.37%
9,CCCCCCCCCCCCCCCC1C[N+](C)(C)CCOP(C)(=O)O1 (configuration not stated),inactive: 1.7%
10,CP(=O)(Nc1ccc(Cl)cc1Cl)Oc1ccccc1 (configuration not stated),inactive: 2.13%
11,CP(=O)(OCCOc1ccccc1)OCCOc1ccccc1,inactive: 0.779%
12,CCOC(=O)c1ccc(NP(C)(=O)Oc2ccc(Cl)cc2)cc1 (configuration not stated),inactive: 1.97%
13,CP(=O)(OC12CC3CC(CC(C3)C1)C2)OC12CC3CC(CC(C3)C1)C2,inactive: 1.62%
14,COc1ccccc1OP(C)(=O)Nc1c(C)n(C)n(-c2ccccc2)c1=O (configuration not stated),inactive: 1.96%
15,O=C(OCCCN1CCCC1)C(O)(c1ccccc1)C1CCCCC1 (configuration not stated),inactive: 0.826%
16,CP(=O)(Oc1ccccc1)N1CCOC1=O (configuration not stated),inactive: 1.22%
17,CCc1ccc(OP(C)(=O)Nc2cccnc2)cc1 (configuration not stated),inactive: 0.0323%
18,CCN(CC)CC(O)COC(=O)C(O)(c1ccccc1)C1CCCCC1 (configuration not stated),inactive: 1.71%
19,COc1ccc(OP(C)(=O)Nc2ccc(Br)cc2)cc1 (configuration not stated),inactive: -0.214%
20,CN(C)C(=O)c1c([N+](=O)[O-])cc([N+](=O)[O-])cc1[N+](=O)[O-],inactive: 1.81%
21,COc1ccccc1OP(C)(=O)Nc1ccccc1Br (configuration not stated),inactive: 0.845%
22,CC(C)(C)c1ccc(OP(C)(=O)O)cc1,inactive: 1.79%
